Biological target: T1, Acyl-CoA:cholesterol acyltransferase (Oryctolagus cuniculus, UniProt Q95214)
T1 sequence (Q95214 whole entry): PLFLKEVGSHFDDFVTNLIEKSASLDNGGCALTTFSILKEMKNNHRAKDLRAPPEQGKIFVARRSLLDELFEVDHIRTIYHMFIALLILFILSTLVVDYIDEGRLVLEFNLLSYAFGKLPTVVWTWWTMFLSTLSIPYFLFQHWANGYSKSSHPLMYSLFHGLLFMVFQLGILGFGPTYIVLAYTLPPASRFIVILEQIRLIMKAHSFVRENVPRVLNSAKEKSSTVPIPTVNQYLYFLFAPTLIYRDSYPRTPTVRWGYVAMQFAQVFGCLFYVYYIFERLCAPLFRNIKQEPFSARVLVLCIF
Test: Tested for in vitro inhibition against Acyl coenzyme A:cholesterol acyltransferase of intestinal microsomes in cholesterol-fed rabbits
Design: species or system Microsome
Outline: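 Microsomes were prepared from intestine of cholesterol-fed rabbits. ACAT activity was measured using [1-14C]oleoyl-CoA as substrate. Each determination was run in triplicate.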

CC(C)c1cccc(C(C)C)c1NC(=O)NCC1(c2cccc(CN(CCO)CCO)c2)CCCC1
IC50: 0.047 µM

Reference: ChEMBL document CHEMBL1127826, “Inhibitors of acyl-CoA:cholesterol acyltransferase (ACAT). 7. Development of a series of substituted N-phenyl-N'-[(1-phenylcyclopentyl)methyl]ureas with enhanced hypocholesterolemic activity” (J Med Chem, 1994)
